Assay results reported in US6475746B1, “Method of obtaining a composition comprising a 5-HT1D selective compound” (Synaptic Pharmaceutical Corporation, priority 1990, dated 2002).
Read-outs that look alike come from different tables or passages of the source.

Sequences of proteins named here, by UniProt entry; tags and fusion partners are left off. A change or cut given only in a name is not applied to a line headed by its entry.
UniProt P28221: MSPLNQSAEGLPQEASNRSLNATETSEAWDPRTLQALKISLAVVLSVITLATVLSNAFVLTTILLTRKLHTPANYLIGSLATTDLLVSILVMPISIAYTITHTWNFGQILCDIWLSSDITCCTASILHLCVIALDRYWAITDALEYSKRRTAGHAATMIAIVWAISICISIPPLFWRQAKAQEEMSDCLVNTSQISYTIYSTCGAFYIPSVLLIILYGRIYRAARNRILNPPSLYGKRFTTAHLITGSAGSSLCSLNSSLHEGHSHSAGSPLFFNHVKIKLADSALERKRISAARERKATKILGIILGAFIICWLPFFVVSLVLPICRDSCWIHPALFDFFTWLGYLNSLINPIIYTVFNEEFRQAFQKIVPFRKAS
UniProt P28564, whole entry: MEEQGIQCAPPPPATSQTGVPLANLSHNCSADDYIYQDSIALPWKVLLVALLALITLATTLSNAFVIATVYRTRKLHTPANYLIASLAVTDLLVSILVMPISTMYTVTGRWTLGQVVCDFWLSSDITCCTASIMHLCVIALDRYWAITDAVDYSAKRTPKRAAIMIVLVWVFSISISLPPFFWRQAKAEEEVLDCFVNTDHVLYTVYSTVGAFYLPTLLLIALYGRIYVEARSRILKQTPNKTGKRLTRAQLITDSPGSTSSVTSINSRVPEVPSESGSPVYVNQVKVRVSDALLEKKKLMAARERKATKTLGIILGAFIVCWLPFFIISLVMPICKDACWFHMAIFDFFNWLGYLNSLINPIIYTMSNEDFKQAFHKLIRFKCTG
UniProt P28222, whole entry: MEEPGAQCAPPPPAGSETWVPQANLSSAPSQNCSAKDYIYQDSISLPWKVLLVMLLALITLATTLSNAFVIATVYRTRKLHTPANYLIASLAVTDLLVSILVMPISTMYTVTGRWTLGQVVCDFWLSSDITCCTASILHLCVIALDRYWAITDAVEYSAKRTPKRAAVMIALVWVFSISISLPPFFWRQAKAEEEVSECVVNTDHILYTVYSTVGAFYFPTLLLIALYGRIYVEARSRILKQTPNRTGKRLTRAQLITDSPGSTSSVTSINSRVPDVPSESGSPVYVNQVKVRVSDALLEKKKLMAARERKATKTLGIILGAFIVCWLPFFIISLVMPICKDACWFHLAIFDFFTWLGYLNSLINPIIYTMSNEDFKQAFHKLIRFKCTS

Legend:
[1] = biological target: Cloned Human 5-HT1D-1 (Homo sapiens, UniProt P28221); experiment: [3H]5-HT binding to cloned human 5-HT1D-1 (gene 8-30-84) in transfected cell membranes; conditions: read-out: Estimated equilibrium dissociation constants (Ki values); [3H]5-HT displacement; membranes of LM (tk−) cells stably transfected; Cheng-Prusoff
[2] = biological target: T1, cloned rat 5-HT1B receptor (Rattus norvegicus, UniProt P28564); conditions: Cos-7 membranes; read-out: equilibrium dissociation constant for [3H]5-HT binding
T1 construct: expressed in transfected cells; host or cells: Cos-7 cells, transient; membrane fraction

[3] = biological target: Cloned Human 5-HT1D-2 (Homo sapiens, UniProt P28222); experiment: [3H]5-HT binding to cloned human 5-HT1D-2 (gene 11) in transfected cell membranes

Substance | Ki [1] | Kd [2] | Kd ([3]; read-out: Kd of radioligand, Ltk- cells transfected with gene 11) | Kd ([3]; read-out: affinity of radioligand binding, transiently transfected Cos-7 cells, peptide 11)
Corynanthine | > 10000 nM |  |  | 
^3H-5-HT |  | 18.4 nM | 2.3 nM | 3 nM
